Assay results: patent publication US20250032457A1, “METHODS OF TREATING ANDROGENIC ALOPECIA AND/OR SKIN CONDITIONS” (priority 2020, published 2025)

System: scalp of a human subject (hairline recession, hair loss and thinning)
Experiment: Topical administration to the scalp of a human subject with hairline recession, hair loss and thinning
Conditions: same human subject; 2% miconazole nitrate topical twice per day

Clc1ccc(COC(Cn2ccnc2)c2ccc(Cl)cc2Cl)c(Cl)c1 (stereo not shown) [miconazole]
results compared with previous administration of minoxidil (5%) or finasteride (1.25 mg daily), including both in combination: superior
